According to patent US9643919B2, “Cycloalkyl-dione derivatives and methods of their use” (The Trustees of The University of Pennsylvania, priority 2013, dated 2017):

target: T1, mouse TP receptor (Mus musculus, UniProt P30987); assay: IP-One functional assay (HTRF), mouse TP receptor antagonism; conditions: not given
T1 sequence (P30987 1-341): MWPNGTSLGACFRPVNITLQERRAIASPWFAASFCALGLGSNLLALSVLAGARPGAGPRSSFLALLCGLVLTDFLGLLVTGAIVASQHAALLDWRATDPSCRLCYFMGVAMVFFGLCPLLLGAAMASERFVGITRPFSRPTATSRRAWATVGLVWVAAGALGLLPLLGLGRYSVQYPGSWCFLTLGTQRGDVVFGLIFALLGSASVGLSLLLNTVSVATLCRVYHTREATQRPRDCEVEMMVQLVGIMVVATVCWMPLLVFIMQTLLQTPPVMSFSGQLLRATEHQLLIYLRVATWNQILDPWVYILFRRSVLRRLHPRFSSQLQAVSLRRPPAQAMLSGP

SMILES	IC50 [nM]
O=C(O)CCc1cccc2c1CCC(NS(=O)(=O)c1ccc(Cl)cc1)C2 (stereo not shown) [Cpd 51280, reference compound]	< 10
O=C1C(c2ccccc2)=C(O)CC1Cc1cccc2c1CCC(NS(=O)(=O)c1ccc(Cl)cc1)C2 (stereo not shown) [Cpd 51548]	< 10
CC1=C(O)CC(Cc2cccc3c2CCC(NS(=O)(=O)c2ccc(Cl)cc2)C3)C1=O (stereo not shown) [Cpd 51559]	< 10
O=C1C(c2ccc(F)cc2)=C(O)CC1Cc1cccc2c1CCC(NS(=O)(=O)c1ccc(Cl)cc1)C2 (stereo not shown) [Cpd 51574]	< 10
COc1ccc(C2=C(O)CC(Cc3cccc4c3CCC(NS(=O)(=O)c3ccc(Cl)cc3)C4)C2=O)cc1 (stereo not shown) [Cpd 51575]	< 10
Cc1cccc(C)c1C1=C(O)CC(Cc2cccc3c2CCC(NS(=O)(=O)c2ccc(Cl)cc2)C3)C1=O (stereo not shown) [Cpd 51580]	< 10

target: T2, human TP receptor (Homo sapiens, UniProt P21731); assay: IP-One functional assay (HTRF), human TP receptor antagonism; format: cell-based; conditions: IPOne assay; QBI-HEK 293A cells stably transfected with human TP receptor; agonist I-BOP 0.2 or 0.8 nM
T2 construct: expressed in transfected cells
T2 sequence (P21731 1-343): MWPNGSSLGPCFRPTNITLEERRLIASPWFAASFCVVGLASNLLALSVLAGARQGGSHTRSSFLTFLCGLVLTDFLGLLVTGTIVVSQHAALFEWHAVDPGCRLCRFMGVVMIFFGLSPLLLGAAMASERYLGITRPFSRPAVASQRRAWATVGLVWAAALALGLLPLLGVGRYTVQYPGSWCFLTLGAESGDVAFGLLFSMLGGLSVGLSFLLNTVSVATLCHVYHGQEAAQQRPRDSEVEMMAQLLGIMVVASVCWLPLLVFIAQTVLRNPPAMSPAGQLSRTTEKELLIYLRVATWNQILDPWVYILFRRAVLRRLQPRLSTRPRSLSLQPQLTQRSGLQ

SMILES	IC50 [nM]
O=C(O)CCc1cccc2c1CCC(NS(=O)(=O)c1ccc(Cl)cc1)C2 (stereo not shown) [Cpd 51280, reference compound]	15.7
